In patent US9657260B2, “Method and system for continous monitoring of toxicity” (Yissum Research Development Company of The Hebrew …, priority 2014, dated 2017):

Tested on: HepG2/C3A spheroids
Assay type: cell-based, human
Experimental: Quantitative Real Time Polymerase Chain Reaction (qRT-PCR). RNA was isolated and purified utilizing Macherey-Nagel NucleoSpin RNA II kit according to manufacturer instructions. RNA concentration and purity was determined using NanoDrop ND-1000 spectrophotometer (Thermo Fisher Scientific, USA). cDNA was synthesized from 1 μg RNA sample using qScript cDNA SuperMix (Quanta BioSciences, USA) according to the manufacturer protocol. Gene expression analysis was carried out utilizing KAPA SYBR FAST Universal 2X qPCR Master Mix (Kapa Biosystems, Boston, USA) on BioRad CFX96 Real-Time System (New South Wales, Australia), according to the manufacturer protocol. Gene transcription was evaluated using the ΔΔCt method normalized to 60S ribosomal protein L32 (RPL32) or ubiquitin C (UBC).

## C[S+](C)[O-] [DMSO]
  increase in CYP2C9 expression: 2 fold
